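Cells were grown in 96-well plates and exposed to each compound for 48 hours at five concentrations; endpoints were interpolated linearly between bracketing concentrations, or set to the highest concentration if not reached. TGI denotes the concentration required for complete inhibition of growth.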
Columns and labels:
Assay in all cases: inhibition of tumour cell growth, NCI panel, 48 h
[1] = test system: HCC-2998 colon
[2] = test system: RXF 393 renal
[3] = test system: SN12C renal
[4] = test system: OVCAR-4 ovarian
[5] = test system: M19-MEL melanoma
[6] = test system: EKVX NSCLC
[7] = test system: K-562 leukemia
[8] = test system: OVCAR-5 ovarian
[9] = test system: NCI-H322M lung
[10] = test system: SF-268 CNS
[11] = test system: HL-60(TB) leukemia
[12] = test system: UACC-62 melanoma
[13] = test system: SR leukemia
[14] = test system: U251 CNS
[15] = test system: COLO 205 colon
[16] = test system: OVCAR-8 ovarian
[17] = test system: DMS 273 small cell lung
[18] = test system: HOP-92 NSCLC
[19] = test system: RPMI-8226 leukemia
[20] = test system: IGROV1 ovarian
[21] = test system: SK-MEL-5 melanoma
[22] = test system: RXF-631 renal
[23] = test system: NCI-H522 lung
[24] = test system: CCRF-CEM leukemia
[25] = test system: NCI-H23 lung
[26] = test system: DLD-1 colon
[27] = test system: UACC-257 melanoma
[28] = test system: MOLT-4 leukemia
[29] = test system: KM12 colon
[30] = test system: OVCAR-3 ovarian
[31] = test system: HOP-62 NSCLC
[32] = test system: SK-MEL-2 melanoma
[33] = test system: LXFL 529 NSCLC
[34] = test system: SNB-19 CNS
[35] = test system: HOP-18 NSCLC
[36] = test system: TK-10 renal
[37] = test system: MALME-3M melanoma
[38] = test system: HCT-116 colon
[39] = test system: A549 NSCLC
[40] = test system: M14 melanoma
[41] = test system: UO-31 renal
[42] = test system: DMS 114 small cell lung
[43] = test system: KM20L2 colon
[44] = test system: A498 renal
[45] = test system: SF-295 CNS
[46] = test system: HT29 colon
[47] = test system: ACHN renal
[48] = test system: SF-539 CNS
[49] = test system: SNB-78 CNS
[50] = test system: NCI-H460 lung
[51] = test system: 786-0 renal
[52] = test system: SW-620 colon
[53] = test system: SK-MEL-28 melanoma
[54] = test system: HCT-15 colon

Measured: TGI

Nc1nc2c(ncn2CCN(CCCl)CCCl)c(=O)[nH]1
> 100 µM: [1] | [2] | [3] | [4] | [5] | [6] | [7] | [8] | [9] | [10] | [11] | [12] | [13] | [14] | [15] | [16] | [17] | [18] | [19] | [20] | [21] | [22] | [23] | [24] | [25] | [26] | [27] | [28] | [29] | [30] | [31] | [32] | [33] | [34] | [35] | [36] | [37] | [38] | [39] | [40] | [41] | [42] | [43] | [44] | [45] | [46] | [47] | [48] | [49] | [50] | [51] | [52] | [53] | [54]
